From paper PMC4314249, “Characterizing the Peroxisome Proliferator-Activated Receptor (PPARγ) Ligand Binding Potential of Several Major Flame Retardants, Their Metabolites, and Chemical Mixtures in House Dust” (Environmental Health Perspectives, 2014)

By UniProt entry, the sequences of proteins in these tests, tags left out. Residues count along the entry.
UniProt P37231, 238-503 limits assumed: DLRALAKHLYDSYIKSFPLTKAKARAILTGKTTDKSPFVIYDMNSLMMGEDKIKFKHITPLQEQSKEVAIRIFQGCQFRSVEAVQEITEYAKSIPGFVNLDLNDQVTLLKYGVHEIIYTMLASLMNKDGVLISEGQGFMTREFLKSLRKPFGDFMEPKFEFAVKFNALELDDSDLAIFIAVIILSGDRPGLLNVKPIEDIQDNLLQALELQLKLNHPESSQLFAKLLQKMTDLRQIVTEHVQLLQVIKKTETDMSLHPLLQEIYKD

Target: T1, human PPARγ ligand-binding domain (Homo sapiens, UniProt P37231)
T1 construct: The kit uses the human-derived recombinant PPARγ LBD tagged with an N-terminal GST-tag; purchased Invitrogen
Assay: PolarScreen PPARγ-Competitor fluorescence polarization ligand binding assay

For `CN(CCOc1ccc(CC2SC(=O)NC2=O)cc1)c1ccccn1` (stereo not shown) [Rosiglitazone, rosiglitazone, reference compound], the “inhibition of the binding between the PPARγ LBD and PPARγ Green probe” value was “completely inhibit”.
